The results in this text go back to US20250388669A1 (published 2025).

The target of the assay is T1, B7H3 (human, UniProt Q5ZPR3 29-466, limits assumed).
T1 sequence (looked up): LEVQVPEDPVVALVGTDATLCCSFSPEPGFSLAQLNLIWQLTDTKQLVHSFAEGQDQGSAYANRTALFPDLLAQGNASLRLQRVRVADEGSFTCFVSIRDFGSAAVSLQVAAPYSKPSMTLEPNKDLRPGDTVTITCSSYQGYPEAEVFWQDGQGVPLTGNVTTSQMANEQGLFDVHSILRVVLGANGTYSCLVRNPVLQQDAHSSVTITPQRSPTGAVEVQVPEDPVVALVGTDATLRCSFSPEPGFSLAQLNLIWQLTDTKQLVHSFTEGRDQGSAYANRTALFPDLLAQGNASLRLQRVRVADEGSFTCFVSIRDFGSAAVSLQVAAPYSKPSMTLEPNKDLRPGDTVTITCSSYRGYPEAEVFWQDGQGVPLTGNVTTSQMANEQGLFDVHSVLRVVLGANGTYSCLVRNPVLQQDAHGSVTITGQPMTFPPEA
The experiment in a line: ELISA or FCM (Example 2). Background: In an ELISA, binding on a coated surface is turned into a signal by an enzyme label.

B1: Ly2136 (other)
chain 1: QVQLVQSGAEVKKPGASVKVSCKASGYTFTSYVMHWVRQKPGQGLEWIGYINPYNEGTESTDKFKGRATMTSDKSTSTVYMELSSLRSEDTAVYYCASIYYGYEGTYFGVWGQGTLVTVSSASTKGPSVFPLAPSSKSTSGGTAALGCLVKDYFPEPVTVSWNSGALTSGVHTFPAVLQSSGLYSLSSVVTVPSSSLGTQTYICNVNHKPSNTKVDKKVEPKSCGGGGSGGGGSGGGGSGGGGSGGGGSEVQLVESGGGLVQPGGSLRLSCAASGFTFSTYAMNWVRQAPGKGLEWVGRIRSKYNNYATYYADSVKGRFTISRDDSKNSLYLQMNSLKTEDTAVYYCVRHGNFGNSYVSWFAYWGQGTLVTVSSGGGGSDKTHTCPPCPAPEAAGPSVFLFPPKPKDTLMISRTPEVTCVVVDVSHEDPEVKFNWYVDGVEVHNAKTKPREEQYNSTYRVVSVLTVLHQDWLNGKEYKCKVSNKALPAPIEKTISKAKGQPREPQVYTLPPSREEMTKNQVSLWCLVKGFYPSDIAVEWESNGQPENNYKTTPPVLDSDGSFFLYSKLTVDKSRWQQGNVFSCSVMHEALHNHYTQKSLSLSPGGGGGSGGGGSGGGGSGGGGSQVQLVQSGAEVKKPGASVKVSCKASGYTFTSYYIHWVRQAPGQGLEWIGCIYPGNVNTNYNEKFKDRATLTVDTSISTAYMELSRLRSDDTAVYFCTRSHYGLDWNFDVWGQGTTVTVSS
chain 2: QVQLVQSGAEVKKPGASVKVSCKASGYTFTSYVMHWVRQKPGQGLEWIGYINPYNEGTESTDKFKGRATMTSDKSTSTVYMELSSLRSEDTAVYYCASIYYGYEGTYFGVWGQGTLVTVSSASTKGPSVFPLAPSSKSTSGGTAALGCLVKDYFPEPVTVSWNSGALTSGVHTFPAVLQSSGLYSLSSVVTVPSSSLGTQTYICNVNHKPSNTKVDKKVEPKSCGGGGSGGGGSGGGGSGGGGSGGGGSQAVVTQEPSLTVSPGGTVTLTCRSSTGAVTTSNYANWVQQKPGQAPRGLIGGTNKRAPWTPARFSGSLLGGKAALTITGAQAEDEADYYCALWYSNLWVFGGGTKLTVLGGGGSDKTHTCPPCPAPEAAGPSVFLFPPKPKDTLMISRTPEVTCVVVDVSHEDPEVKFNWYVDGVEVHNAKTKPREEQYNSTYRVVSVLTVLHQDWLNGKEYKCKVSNKALPAPIEKTISKAKGQPREPQVYTLPPSREEMTKNQVSLSCAVKGFYPSDIAVEWESNGQPENNYKTTPPVLDSDGSFFLVSKLTVDKSRWQQGNVFSCSVMHEALHNRFTQKSLSLSPGGGGGSGGGGSGGGGSGGGGSDIQMTQSPSSLSASVGDRVTITCHASQNIYVWLNWYQQKPGKAPKLLIYKASNLHTGVPSRFSGSGSGTDFTLTISSLQPEDFATYYCQQGQTYPYTFGGGTKVEIK
light: EIVLTQSPATLSLSPGERATLSCRASSSVSYMHWYQQKPGQAPRPWIYATSNLASGIPARFSGSRSGTDYTLTISSLEPEDFAVYYCQQWSSNTLTFGGGTKVEIKRTVAAPSVFIFPPSDEQLKSGTASVVCLLNNFYPREAKVQWKVDNALQSGNSQESVTEQDSKDSTYSLSSTLTLSKADYEKHKVYACEVTHQGLSSPVTKSFNRGEC
notes: Tri-specific antibody: B7H3 Fabs, central CD3 Fv, terminal CD28 Fv; Flexible linker is (G4S)5
As to B1, the binding result was “binds”.

B2: Ly2137 (other)
chain 1: QVQLVQSGAEVKKPGASVKVSCKASGYTFTSYVMHWVRQKPGQGLEWIGYINPYNEGTESTDKFKGRATMTSDKSTSTVYMELSSLRSEDTAVYYCASIYYGYEGTYFGVWGQGTLVTVSSASTKGPSVFPLAPSSKSTSGGTAALGCLVKDYFPEPVTVSWNSGALTSGVHTFPAVLQSSGLYSLSSVVTVPSSSLGTQTYICNVNHKPSNTKVDKKVEPKSCGGGGSGGGGSGGGGSEVQLVESGGGLVQPGGSLRLSCAASGFTFSTYAMNWVRQAPGKGLEWVGRIRSKYNNYATYYADSVKGRFTISRDDSKNSLYLQMNSLKTEDTAVYYCVRHGNFGNSYVSWFAYWGQGTLVTVSSGGGGSDKTHTCPPCPAPEAAGPSVFLFPPKPKDTLMISRTPEVTCVVVDVSHEDPEVKFNWYVDGVEVHNAKTKPREEQYNSTYRVVSVLTVLHQDWLNGKEYKCKVSNKALPAPIEKTISKAKGQPREPQVYTLPPSREEMTKNQVSLWCLVKGFYPSDIAVEWESNGQPENNYKTTPPVLDSDGSFFLYSKLTVDKSRWQQGNVFSCSVMHEALHNHYTQKSLSLSPGGGGGSGGGGSGGGGSGGGGSQVQLVQSGAEVKKPGASVKVSCKASGYTFTSYYIHWVRQAPGQGLEWIGCIYPGNVNTNYNEKFKDRATLTVDTSISTAYMELSRLRSDDTAVYFCTRSHYGLDWNFDVWGQGTTVTVSS
chain 2: QVQLVQSGAEVKKPGASVKVSCKASGYTFTSYVMHWVRQKPGQGLEWIGYINPYNEGTESTDKFKGRATMTSDKSTSTVYMELSSLRSEDTAVYYCASIYYGYEGTYFGVWGQGTLVTVSSASTKGPSVFPLAPSSKSTSGGTAALGCLVKDYFPEPVTVSWNSGALTSGVHTFPAVLQSSGLYSLSSVVTVPSSSLGTQTYICNVNHKPSNTKVDKKVEPKSCGGGGSGGGGSGGGGSQAVVTQEPSLTVSPGGTVTLTCRSSTGAVTTSNYANWVQQKPGQAPRGLIGGTNKRAPWTPARFSGSLLGGKAALTITGAQAEDEADYYCALWYSNLWVFGGGTKLTVLGGGGSDKTHTCPPCPAPEAAGPSVFLFPPKPKDTLMISRTPEVTCVVVDVSHEDPEVKFNWYVDGVEVHNAKTKPREEQYNSTYRVVSVLTVLHQDWLNGKEYKCKVSNKALPAPIEKTISKAKGQPREPQVYTLPPSREEMTKNQVSLSCAVKGFYPSDIAVEWESNGQPENNYKTTPPVLDSDGSFFLVSKLTVDKSRWQQGNVFSCSVMHEALHNRFTQKSLSLSPGGGGGSGGGGSGGGGSGGGGSDIQMTQSPSSLSASVGDRVTITCHASQNIYVWLNWYQQKPGKAPKLLIYKASNLHTGVPSRFSGSGSGTDFTLTISSLQPEDFATYYCQQGQTYPYTFGGGTKVEIK
light: EIVLTQSPATLSLSPGERATLSCRASSSVSYMHWYQQKPGQAPRPWIYATSNLASGIPARFSGSRSGTDYTLTISSLEPEDFAVYYCQQWSSNTLTFGGGTKVEIKRTVAAPSVFIFPPSDEQLKSGTASVVCLLNNFYPREAKVQWKVDNALQSGNSQESVTEQDSKDSTYSLSSTLTLSKADYEKHKVYACEVTHQGLSSPVTKSFNRGEC
notes: Tri-specific antibody: B7H3 Fabs, central CD3 Fv, terminal CD28 Fv; Flexible linker is (G4S)3
With B2, the binding result is “binds”.

B3: Ly2128 (other)
chain 1: QVQLVQSGAEVKKPGASVKVSCKASGYTFTSYVMHWVRQKPGQGLEWIGYINPYNEGTESTDKFKGRATMTSDKSTSTVYMELSSLRSEDTAVYYCASIYYGYEGTYFGVWGQGTLVTVSSASTKGPSVFPLAPSSKSTSGGTAALGCLVKDYFPEPVTVSWNSGALTSGVHTFPAVLQSSGLYSLSSVVTVPSSSLGTQTYICNVNHKPSNTKVDKKVEPKSCGGGGSGGGGSGGGGSGGGGSEVQLVESGGGLVQPGGSLRLSCAASGFTFSTYAMNWVRQAPGKGLEWVGRIRSKYNNYATYYADSVKGRFTISRDDSKNSLYLQMNSLKTEDTAVYYCVRHGNFGNSYVSWFAYWGQGTLVTVSSGGGGSDKTHTCPPCPAPEAAGPSVFLFPPKPKDTLMISRTPEVTCVVVDVSHEDPEVKFNWYVDGVEVHNAKTKPREEQYNSTYRVVSVLTVLHQDWLNGKEYKCKVSNKALPAPIEKTISKAKGQPREPQVYTLPPSREEMTKNQVSLWCLVKGFYPSDIAVEWESNGQPENNYKTTPPVLDSDGSFFLYSKLTVDKSRWQQGNVFSCSVMHEALHNHYTQKSLSLSPGGGGGSGGGGSGGGGSGGGGSQVQLVQSGAEVKKPGASVKVSCKASGYTFTSYYIHWVRQAPGQGLEWIGCIYPGNVNTNYNEKFKDRATLTVDTSISTAYMELSRLRSDDTAVYFCTRSHYGLDWNFDVWGQGTTVTVSS
chain 2: QVQLVQSGAEVKKPGASVKVSCKASGYTFTSYVMHWVRQKPGQGLEWIGYINPYNEGTESTDKFKGRATMTSDKSTSTVYMELSSLRSEDTAVYYCASIYYGYEGTYFGVWGQGTLVTVSSASTKGPSVFPLAPSSKSTSGGTAALGCLVKDYFPEPVTVSWNSGALTSGVHTFPAVLQSSGLYSLSSVVTVPSSSLGTQTYICNVNHKPSNTKVDKKVEPKSCGGGGSGGGGSGGGGSGGGGSQAVVTQEPSLTVSPGGTVTLTCRSSTGAVTTSNYANWVQQKPGQAPRGLIGGTNKRAPWTPARFSGSLLGGKAALTITGAQAEDEADYYCALWYSNLWVFGGGTKLTVLGGGGSDKTHTCPPCPAPEAAGPSVFLFPPKPKDTLMISRTPEVTCVVVDVSHEDPEVKFNWYVDGVEVHNAKTKPREEQYNSTYRVVSVLTVLHQDWLNGKEYKCKVSNKALPAPIEKTISKAKGQPREPQVYTLPPSREEMTKNQVSLSCAVKGFYPSDIAVEWESNGQPENNYKTTPPVLDSDGSFFLVSKLTVDKSRWQQGNVFSCSVMHEALHNRFTQKSLSLSPGGGGGSGGGGSGGGGSGGGGSDIQMTQSPSSLSASVGDRVTITCHASQNIYVWLNWYQQKPGKAPKLLIYKASNLHTGVPSRFSGSGSGTDFTLTISSLQPEDFATYYCQQGQTYPYTFGGGTKVEIK
light: EIVLTQSPATLSLSPGERATLSCRASSSVSYMHWYQQKPGQAPRPWIYATSNLASGIPARFSGSRSGTDYTLTISSLEPEDFAVYYCQQWSSNTLTFGGGTKVEIKRTVAAPSVFIFPPSDEQLKSGTASVVCLLNNFYPREAKVQWKVDNALQSGNSQESVTEQDSKDSTYSLSSTLTLSKADYEKHKVYACEVTHQGLSSPVTKSFNRGEC
notes: Tri-specific antibody: B7H3 Fabs, central CD3 Fv, terminal CD28 Fv; Flexible linker is (G4S)4
Consider B3, for which the binding result is “binds”.
